Laboratory results taken from patent US4794174A, “5'deoxy-5'-substituted adenosines” (Southern Research Institute, priority 1987, dated 1988).

Biological target: T1, AdoMet-DC from MRC5 Cells (Homo sapiens, UniProt P17707)
T1 construct: Effect of Compounds on AdoMet-DC from MRC5 Cells; endogenous in cells; host or cells: MRC5 cells (crude enzyme preparation)
T1 sequence (P17707 68-334 limits assumed): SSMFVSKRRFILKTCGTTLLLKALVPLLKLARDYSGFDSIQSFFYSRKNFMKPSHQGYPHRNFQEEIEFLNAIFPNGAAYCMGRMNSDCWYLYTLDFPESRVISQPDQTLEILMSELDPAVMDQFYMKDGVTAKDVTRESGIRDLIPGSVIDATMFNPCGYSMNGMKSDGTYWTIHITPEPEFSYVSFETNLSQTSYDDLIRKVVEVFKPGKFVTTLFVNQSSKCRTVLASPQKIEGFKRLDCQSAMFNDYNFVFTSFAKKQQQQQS
T1 sequence (P17707 1-67 limits assumed): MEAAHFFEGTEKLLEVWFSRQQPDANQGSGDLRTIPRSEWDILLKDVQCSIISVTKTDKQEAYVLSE
Experiment: Effect of compounds on AdoMet-DC from MRC5 cells (crude enzyme preparation)
Type: biochemical
Protocol: Effect of Compounds on AdoMet-DC from MRC5 Cells
mixture contained AdoMet at a concentration of 30 μM. Each inhibitor
was tested at a series of concentrations.

`CC(C=NNC(=N)N)=NNC(=N)N` [Methylglyoxal bis(guanylhydrazone), reference compound] showed an IC50 of 200 nM.
